One molecule from ChEMBL document CHEMBL1147248, “A new acylated oleanane triterpenoid from Couepia polyandra that inhibits the lyase activity of DNA polymerase beta” (J Nat Prod, 2003) can be followed below.

In the test the target is DNA polymerase beta (Homo sapiens, UniProt P06746). The experiment in a line: Inhibition of DNA polymerase beta lyase activity by deoxyribose phosphate excision assay.

For `C=C(C)[C@@H]1CC[C@]2(C(=O)O)CC[C@]3(C)[C@H](CC[C@@H]4[C@@]5(C)CC[C@H](O)C(C)(C)[C@@H]5CC[C@]43C)[C@@H]12` [BETULINIC ACID], the concentration for half-maximal inhibition (IC50) stood at 43.6 µM. In other words, the double-digit micromolar range.
